Each structure is given as a SMILES string.

Protein sequences, listed by entry. Tags and fused reporters are not part of them. Residues count along the entry.
UniProt A0A075TEP6, 1-766: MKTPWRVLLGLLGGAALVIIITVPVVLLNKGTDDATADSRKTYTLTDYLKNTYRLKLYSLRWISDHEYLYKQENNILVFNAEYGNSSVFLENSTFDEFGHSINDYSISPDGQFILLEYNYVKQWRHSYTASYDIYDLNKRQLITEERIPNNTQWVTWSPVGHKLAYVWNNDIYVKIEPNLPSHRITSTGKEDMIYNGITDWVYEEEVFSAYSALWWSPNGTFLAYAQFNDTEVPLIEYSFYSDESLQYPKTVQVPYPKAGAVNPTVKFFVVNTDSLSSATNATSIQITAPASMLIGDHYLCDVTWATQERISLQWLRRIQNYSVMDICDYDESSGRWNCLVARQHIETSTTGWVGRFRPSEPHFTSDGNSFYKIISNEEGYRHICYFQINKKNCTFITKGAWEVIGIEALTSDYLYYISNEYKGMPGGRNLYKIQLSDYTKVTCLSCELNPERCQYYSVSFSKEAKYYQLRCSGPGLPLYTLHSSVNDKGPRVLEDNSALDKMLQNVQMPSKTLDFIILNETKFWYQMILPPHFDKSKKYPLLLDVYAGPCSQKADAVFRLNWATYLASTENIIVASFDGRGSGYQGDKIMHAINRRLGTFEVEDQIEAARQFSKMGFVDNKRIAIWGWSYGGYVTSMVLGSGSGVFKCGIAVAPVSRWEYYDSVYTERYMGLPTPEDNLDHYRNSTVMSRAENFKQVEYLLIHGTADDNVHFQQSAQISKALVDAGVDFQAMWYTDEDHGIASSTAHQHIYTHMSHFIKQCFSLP

One experiment concerns the target T1, cynomolgus monkey DPP4 (UniProt A0A075TEP6).
T1 construct: made in house
Nature of the experiment: Steady-state inhibition of isolated cloned DPP4 at 37°C (gly-pro-pNA). The following applies: mean ± SD (n). The experiment is classed as biochemical.

A further experiment relates to plasma DPP activity. The following applies: 24-hours post dose; cited from earlier work.

With `N[C@@H](CC(=O)N1CCn2c(nnc2C(F)(F)F)C1)Cc1cc(F)c(F)cc1F` [Sitagliptin, reference compound], the inhibitory constant (Ki) (in general, the dissociation constant of the complex between target and ligand, obtained from inhibition or displacement) on cynomolgus monkey DPP4 worked out at 15.6 ± 3.6 nM. In addition, in the experiment with plasma DPP activity, the “inhibition of plasma DPP4 activity at trough needed to obtain maximal glucose lowering” value was 80%.

The record behind these values is article PMC3373380 (BMC Pharmacology, 2012).
